Consider one compound from patent US11957661B2, “JAK1 pathway inhibitors for the treatment of vitiligo” (Incyte Corporation, priority 2020, dated 2024).

The test addresses human JAK1 (Homo sapiens, UniProt P23458). The experiment in a line: In vitro JAK kinase assay (HTRF, Example A). It is filed as biochemical. The settings on record: 1 mM ATP. A general note: In TR-FRET formats the signal depends on donor and acceptor labels being close together.

As a reminder, the IC50 is the point on the concentration scale where inhibition reaches its midpoint. A lower IC50 goes with greater potency.

Structures are written as SMILES.

Regarding `CN(C)Cc1cc(F)cc(OC2CCN(CC(CC#N)n3cc(-c4ncnc5[nH]ccc45)cn3)CC2)c1` (single isomer, unassigned) [Compound 14, 4-(4-{3-[(dimethylamino)methyl]-5-fluorophenoxy}piperidin-1-yl)-3-[4-(7H-pyrrolo[2,3-d]pyrimidin-4-yl)-1H-pyrazol-1-yl]butanenitrile], the IC50 was below 10 nM.
